For two compounds, IC50 results are on record in US8673909B2, “Indole compounds and methods for treating visceral pain” (NeurAxon, Inc., priority 2007, dated 2014).

The target in assay [1] is T1, Nitric oxide synthase (neuronal, human recombinant) nNOS (Homo sapiens, UniProt P29475).
T1 construct: purchased Axxora LLC ALX-201-068
The assay can be described thus: nNOS (human) enzyme assay, [3H]-L-arginine to L-citrulline. In kind it is biochemical. The note with it: Table 15.

The target in assay [2] is T2, Nitric oxide synthase (endothelial, human recombinant) eNOS (Homo sapiens, UniProt P29474).
T2 construct: purchased Axxora LLC ALX-201-070
The assay can be described thus: eNOS (human) enzyme assay, [3H]-L-arginine to L-citrulline. In kind it is biochemical. The note with it: Table 15.

Each structure is given as a SMILES string.

As a reminder, the IC50 is the concentration that gives 50% inhibition. Regarding `CCNC1CCCC(c2c[nH]c3ccc(NC(=N)c4cccs4)cc23)C1` (single isomer, unassigned) [Compound 22, N-(3-(3-(ethylamino)cyclohexyl)-1H-indol-5-yl)thiophene-2-carboximidamide], the values for the concentration for half-maximal inhibition (IC50) in assay [1] and in assay [2] were 0.264 µM and 10.8 µM, respectively.

Regarding `CCNC1CCCC(c2c[nH]c3ccc(NC(=N)c4cccs4)cc23)C1` (single isomer, unassigned) [Compound 23, N-(3-(3-(ethylamino)cyclohexyl)-1H-indol-5-yl)thiophene-2-carboximidamide], the IC50 in assay [1] turned out to be 0.735 µM; in assay [2], 31.8 µM.
